{"sequences": {"note": "By UniProt entry, the sequences of proteins in these tests, tags left out. Residues count along the entry.", "UniProt P09958, 108-794": "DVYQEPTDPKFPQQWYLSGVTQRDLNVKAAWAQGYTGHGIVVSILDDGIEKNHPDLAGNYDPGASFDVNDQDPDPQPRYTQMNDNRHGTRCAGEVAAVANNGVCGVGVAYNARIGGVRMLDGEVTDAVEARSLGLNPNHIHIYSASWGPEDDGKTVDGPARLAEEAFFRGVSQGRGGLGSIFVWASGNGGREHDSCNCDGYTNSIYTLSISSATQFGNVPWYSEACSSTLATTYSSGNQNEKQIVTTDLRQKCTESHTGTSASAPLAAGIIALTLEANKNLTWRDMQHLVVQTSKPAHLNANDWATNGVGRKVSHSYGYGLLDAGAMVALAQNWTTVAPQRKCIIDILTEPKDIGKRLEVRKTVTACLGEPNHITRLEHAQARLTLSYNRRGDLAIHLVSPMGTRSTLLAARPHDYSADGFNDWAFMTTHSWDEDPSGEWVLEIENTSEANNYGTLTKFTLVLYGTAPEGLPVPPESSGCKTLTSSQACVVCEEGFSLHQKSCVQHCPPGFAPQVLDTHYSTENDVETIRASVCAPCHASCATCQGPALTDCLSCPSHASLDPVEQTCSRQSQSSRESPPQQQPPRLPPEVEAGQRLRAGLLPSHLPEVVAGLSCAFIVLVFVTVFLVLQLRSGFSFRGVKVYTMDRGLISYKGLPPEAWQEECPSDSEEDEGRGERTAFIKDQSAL"}, "source": "patent US20150141324A1", "about": "(priority 2011, published 2015)", "molecular_target": "T1, furin (Homo sapiens, UniProt P09958)", "T1 construct": "endogenous in cells; host or cells: HEK293", "type": "cell-based"}
{"compound": "C[C@H](NC(=O)[C@H](CCCNC(=N)N)NC(=O)CCCCCCCN)C(=O)N[C@@H](CCCNC(=N)N)C(=O)N[C@@H](CCCNC(=N)N)C(=O)N[C@@H](CCCNC(=N)N)C(=O)N[C@@H](CCCCN)C(=O)N[C@@H](CCCCN)C(=O)N[C@@H](CCCNC(=N)N)C(=O)N[C@H](C(N)=O)[C@@H](C)O", "note": "[Aoc-RxxT]", "values": [{"measurement": "potency against furin in cell fusion inhibition, compared to RxxT control peptide", "result": "increased potency"}]}
